By UniProt entry, the sequences of proteins in these tests, tags left out.
UniProt P35610, whole entry: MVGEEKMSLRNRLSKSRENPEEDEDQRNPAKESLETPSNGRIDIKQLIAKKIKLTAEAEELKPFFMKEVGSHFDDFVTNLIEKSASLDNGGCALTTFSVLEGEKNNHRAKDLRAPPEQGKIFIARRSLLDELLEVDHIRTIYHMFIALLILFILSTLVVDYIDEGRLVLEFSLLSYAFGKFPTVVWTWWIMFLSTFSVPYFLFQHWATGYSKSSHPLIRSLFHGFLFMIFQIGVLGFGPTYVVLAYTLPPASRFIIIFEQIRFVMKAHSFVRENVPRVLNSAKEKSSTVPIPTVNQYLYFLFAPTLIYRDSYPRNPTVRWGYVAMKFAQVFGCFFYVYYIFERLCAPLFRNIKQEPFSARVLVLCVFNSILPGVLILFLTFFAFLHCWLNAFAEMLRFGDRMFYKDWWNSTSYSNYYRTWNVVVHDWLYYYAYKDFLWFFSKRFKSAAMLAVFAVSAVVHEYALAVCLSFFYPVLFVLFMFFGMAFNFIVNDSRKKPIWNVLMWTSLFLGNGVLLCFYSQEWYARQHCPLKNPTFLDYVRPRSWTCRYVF

According to patent publication US8420681B2, “Dioxo-imidazolidine derivatives, which inhibit the enzyme SOAT-1, and pharmaceutical and cosmetic compositions containing them” (Galderma Research & Development, priority 2009, dated 2013):

Biological target: enzyme ACAT-1 (Homo sapiens, UniProt P35610)
Experiment: HepG2 NBD-cholesterol fluorescence test of inhibitory activity towards ACAT-1 (SOAT-1)
Settings: HepG2 cells, NBD-cholesterol 1 μg/ml, incubation 6 hours at 37° C., fluorescence read (490/540 nm)
Description: The compounds (I) according to the invention, and also the pharmaceutically acceptable salts, solvates and/or hydrates thereof, have inhibitory properties on the enzyme SOAT-1. This inhibitory activity on the enzyme SOAT-1 is measured according to a HepG2 primary enzymatic test, as described in Example 23.
The compounds of formula (I) according to the invention were subjected to a test for evaluating their inhibitory activity towards the enzyme ACAT-1, inspired by the following publication: “Identification of ACAT1- and ACAT2-specific inhibitors using a novel, cell based fluorescence assay: individual ACAT uniqueness”, J. Lipid. Res. (2004) vol. 45, pages 378-386.
The principle of this test is based on the use of NBD-cholesterol, a cholesterol analogue whose fluorescence depends on its environment. When this molecule is in a polar environment, it is weakly fluorescent, whereas in a non-polar environment, it is strongly fluorescent. […]
The method below is applied: HepG2 cells are incubated in the presence of NBD-cholesterol (1 μg/ml) and of the test compound of formula (I) in black 96-well transparent-bottomed plates, at a rate of 30 000 cells per well. […] After addition of 50 μl of lysis buffer (10 mM NaPO4, 1% Igepal), the plates are shaken for 5 minutes and the fluorescence is read (excitation at 490 nm, emission at 540 nm) on a Fusion machine (Perkin-Elmer). […]

- IC50: 1190 nM
SMILES: Cc1ccc(N2C(=O)N(CC(=O)NCc3ccccc3)C(=O)C23CCCCC3)cc1
